From ChEMBL document CHEMBL4371097, “Antibacterial Aromatic Polyketides Incorporating the Unusual Amino Acid Enduracididine” (J Nat Prod, 2019)

Columns and labels:
Staphylococcus aureus [1] = conditions: ATCC 6538P
Staphylococcus aureus [2] = conditions: ATCC 29213

GENTAMICIN showed an MIC (Staphylococcus aureus [1]) of 0.5 µg/mL and an MIC (Staphylococcus aureus [2]) of 0.5 µg/mL.
